Assay results taken from PMC8818328 (European journal of medicinal chemistry, 2021).

Chains of the proteins cited; added tags and fusions are not shown.
UniProt Q92769, whole entry: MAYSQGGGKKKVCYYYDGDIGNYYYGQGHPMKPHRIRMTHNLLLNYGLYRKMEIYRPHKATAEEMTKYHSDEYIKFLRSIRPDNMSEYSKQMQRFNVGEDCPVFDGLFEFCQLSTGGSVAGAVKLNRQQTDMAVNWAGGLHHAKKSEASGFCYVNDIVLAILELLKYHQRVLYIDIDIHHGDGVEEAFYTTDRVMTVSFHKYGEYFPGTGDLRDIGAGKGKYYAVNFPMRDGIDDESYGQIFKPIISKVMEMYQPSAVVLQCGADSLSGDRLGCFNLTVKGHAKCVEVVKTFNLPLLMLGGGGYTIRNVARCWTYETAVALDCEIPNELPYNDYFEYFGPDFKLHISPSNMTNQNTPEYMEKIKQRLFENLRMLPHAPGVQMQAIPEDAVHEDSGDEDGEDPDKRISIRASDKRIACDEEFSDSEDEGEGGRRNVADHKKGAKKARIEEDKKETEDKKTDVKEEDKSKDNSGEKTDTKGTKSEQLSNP

Biological target: HDAC2 (Homo sapiens, UniProt Q92769)
Assay: Fluorogenic enzymatic assay HDAC2
Conditions: ratio of IC50 values

SMILES | HDAC6/ HDAC2 | HDAC8/ HDAC2 | HDAC1/ HDAC2 | HDAC3/ HDAC2
CCn1c(SCCCCCC(=O)O)nnc1-c1ccncc1 [Compound 5b, 6-((4-ethyl-5-(pyridin-4-yl)-4H-1,2,4-triazol-3-yl)thio)hexanoic acid] | >11.37 | >11.37 |  | 
C=CCn1c(SCCCCCC(=O)O)nnc1-c1ccncc1 [Compound 5c, 6-((4-allyl-5-(pyridin-4-yl)-4H-1,2,4-triazol-3-yl)thio)hexanoic acid] | >29.64 | >29.64 |  | 
CCn1c(SCCCCCC(=O)NO)nnc1-c1ccncc1 [Compound 6b, 6-((4-ethyl-5-(pyridin-4-yl)-4H-1,2,4-triazol-3-yl)thio)-N-hydroxyhexanamide] | >9.32 |  |  | 
C=CCn1c(SCCCCCC(=O)NO)nnc1-c1ccncc1 [Compound 6c, 6-((4-allyl-5-(pyridin-4-yl)-4H-1,2,4-triazol-3-yl)thio)-N-hydroxyhexanamide] |  |  | >25.60 | 
O=C(CCCCCSc1nnc(-c2ccncc2)n1-c1ccccc1)NO [Compound 6d, N-hydroxy-6-((4-phenyl-5-(pyridin-4-yl)-4H-1,2,4-triazol-3-yl)thio)hexanamide] |  | >9.27 | >9.27 | >9.27
CCn1c(SCCCCCC(=O)Nc2ccccc2N)nnc1-c1ccncc1 [Compound 7b, N-(2-aminophenyl)-6-((4-ethyl-5-(pyridin-4-yl)-4H-1,2,4-triazol-3-yl)thio)hexanamide] | >11.06 |  | >11.06 | >11.06
Nc1ccccc1NC(=O)CCCCCSc1nnc(-c2ccncc2)n1-c1ccccc1 [Compound 7d, N-(2-aminophenyl)-6-((4-phenyl-5-(pyridin-4-yl)-4H-1,2,4-triazol-3-yl)thio)hexanamide] |  | >7.75 |  | >7.75
CCn1c(SCc2ccc(C(=O)NO)cc2)nnc1-c1ccncc1 [Compound 10b, 4-(((4-ethyl-5-(pyridin-4-yl)-4H-1,2,4-triazol-3-yl)thio)methyl)-N-hydroxybenzamide] | >9.87 | >9.87 | >9.87 | 

Now from value to molecule:

HDAC6/ HDAC2 | HDAC8/ HDAC2 | HDAC1/ HDAC2 | HDAC3/ HDAC2 | SMILES
>7.49 | >7.49 | >7.49 |  | CCn1c(SCc2ccc(C(=O)Nc3ccccc3N)cc2)nnc1-c1ccncc1 [Compound 11b, N-(2-aminophenyl)-4-(((4-ethyl-5-(pyridin-4-yl)-4H-1,2,4-triazol-3-yl)thio)methyl)benzamide]
 |  | 9.25 |  | C=CCn1c(SCc2ccc(C(=O)Nc3ccccc3N)cc2)nnc1-c1ccncc1 [Compound 11c, 4-(((4-allyl-5-(pyridin-4-yl)-4H-1,2,4-triazol-3-yl)thio)methyl)-N-(2-aminophenyl)benzamide]
 |  | 2.64 |  | Nc1ccccc1NC(=O)c1ccc(CSc2nnc(-c3ccncc3)n2-c2ccccc2)cc1 [Compound 11d, N-(2-aminophenyl)-4-(((4-phenyl-5-(pyridin-4-yl)-4H-1,2,4-triazol-3-yl)thio)methyl)benzamide]
